Assays:
AtABCC1 = AtABCC1 (Arabidopsis thaliana, UniProt Q9C8G9); assay: PC2 transport into microsomal vesicles of SM7 yeast expressing AtABCC1; assay type: biochemical, A. thaliana; conditions: vanadate 1 mM, NH4Cl 5 mM, PC 25 μM
AtABCC2 = AtABCC2 (Arabidopsis thaliana, UniProt Q42093); assay: PC2 transport into microsomal vesicles of SM7 yeast expressing AtABCC2; assay type: biochemical, A. thaliana; conditions: vanadate 1 mM, NH4Cl 5 mM, PC 25 μM
[1] = test system: atabcc1 atabcc2 double knock-out A. thaliana; conditions: ½ MS agar plate, 16 days; low content of As(V) or Cd, or DSMA

By UniProt entry, the sequences of proteins in these tests, tags left out. Where a name states a change or a piece, a line headed by the entry shows the natural chain unless it says otherwise.
UniProt Q9C8G9: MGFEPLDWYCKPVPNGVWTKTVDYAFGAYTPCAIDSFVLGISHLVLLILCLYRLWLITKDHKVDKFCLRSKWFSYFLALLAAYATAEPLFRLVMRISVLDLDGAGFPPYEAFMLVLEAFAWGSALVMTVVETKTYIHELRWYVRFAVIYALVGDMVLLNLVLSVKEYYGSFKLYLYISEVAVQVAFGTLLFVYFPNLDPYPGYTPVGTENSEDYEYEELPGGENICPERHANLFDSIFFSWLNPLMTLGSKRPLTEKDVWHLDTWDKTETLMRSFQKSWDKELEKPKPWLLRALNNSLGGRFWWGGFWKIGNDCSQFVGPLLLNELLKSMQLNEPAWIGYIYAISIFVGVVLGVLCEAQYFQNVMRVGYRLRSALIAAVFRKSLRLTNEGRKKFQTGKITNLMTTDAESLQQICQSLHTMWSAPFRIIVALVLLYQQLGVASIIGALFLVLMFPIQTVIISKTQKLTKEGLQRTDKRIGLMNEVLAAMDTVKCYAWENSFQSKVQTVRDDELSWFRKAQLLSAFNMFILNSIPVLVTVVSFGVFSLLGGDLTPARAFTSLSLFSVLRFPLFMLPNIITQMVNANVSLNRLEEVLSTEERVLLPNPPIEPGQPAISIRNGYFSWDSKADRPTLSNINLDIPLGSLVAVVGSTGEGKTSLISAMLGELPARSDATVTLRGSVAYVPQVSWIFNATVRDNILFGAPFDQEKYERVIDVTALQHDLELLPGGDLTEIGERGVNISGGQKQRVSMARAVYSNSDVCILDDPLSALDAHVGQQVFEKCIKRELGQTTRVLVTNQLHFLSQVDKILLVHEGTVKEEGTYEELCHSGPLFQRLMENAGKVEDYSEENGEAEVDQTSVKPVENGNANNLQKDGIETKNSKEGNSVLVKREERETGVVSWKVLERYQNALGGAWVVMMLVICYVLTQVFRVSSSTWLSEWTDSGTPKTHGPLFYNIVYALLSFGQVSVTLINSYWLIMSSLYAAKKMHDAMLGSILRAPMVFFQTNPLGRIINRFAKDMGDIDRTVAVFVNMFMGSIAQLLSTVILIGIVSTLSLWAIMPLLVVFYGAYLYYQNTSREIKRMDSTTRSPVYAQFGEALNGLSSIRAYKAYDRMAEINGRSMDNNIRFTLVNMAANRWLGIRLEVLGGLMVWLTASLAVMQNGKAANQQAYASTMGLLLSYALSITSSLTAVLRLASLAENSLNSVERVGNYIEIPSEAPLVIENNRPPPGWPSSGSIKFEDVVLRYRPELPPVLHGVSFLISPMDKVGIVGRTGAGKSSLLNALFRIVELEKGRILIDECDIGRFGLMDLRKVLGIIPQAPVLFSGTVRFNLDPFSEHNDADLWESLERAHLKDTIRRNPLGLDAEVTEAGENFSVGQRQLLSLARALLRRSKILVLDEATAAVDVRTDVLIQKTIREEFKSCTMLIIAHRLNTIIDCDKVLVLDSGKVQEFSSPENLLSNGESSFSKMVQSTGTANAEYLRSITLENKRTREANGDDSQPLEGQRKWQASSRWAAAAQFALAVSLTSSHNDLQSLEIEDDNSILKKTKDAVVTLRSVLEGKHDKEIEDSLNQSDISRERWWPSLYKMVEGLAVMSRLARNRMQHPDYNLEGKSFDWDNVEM
UniProt Q42093: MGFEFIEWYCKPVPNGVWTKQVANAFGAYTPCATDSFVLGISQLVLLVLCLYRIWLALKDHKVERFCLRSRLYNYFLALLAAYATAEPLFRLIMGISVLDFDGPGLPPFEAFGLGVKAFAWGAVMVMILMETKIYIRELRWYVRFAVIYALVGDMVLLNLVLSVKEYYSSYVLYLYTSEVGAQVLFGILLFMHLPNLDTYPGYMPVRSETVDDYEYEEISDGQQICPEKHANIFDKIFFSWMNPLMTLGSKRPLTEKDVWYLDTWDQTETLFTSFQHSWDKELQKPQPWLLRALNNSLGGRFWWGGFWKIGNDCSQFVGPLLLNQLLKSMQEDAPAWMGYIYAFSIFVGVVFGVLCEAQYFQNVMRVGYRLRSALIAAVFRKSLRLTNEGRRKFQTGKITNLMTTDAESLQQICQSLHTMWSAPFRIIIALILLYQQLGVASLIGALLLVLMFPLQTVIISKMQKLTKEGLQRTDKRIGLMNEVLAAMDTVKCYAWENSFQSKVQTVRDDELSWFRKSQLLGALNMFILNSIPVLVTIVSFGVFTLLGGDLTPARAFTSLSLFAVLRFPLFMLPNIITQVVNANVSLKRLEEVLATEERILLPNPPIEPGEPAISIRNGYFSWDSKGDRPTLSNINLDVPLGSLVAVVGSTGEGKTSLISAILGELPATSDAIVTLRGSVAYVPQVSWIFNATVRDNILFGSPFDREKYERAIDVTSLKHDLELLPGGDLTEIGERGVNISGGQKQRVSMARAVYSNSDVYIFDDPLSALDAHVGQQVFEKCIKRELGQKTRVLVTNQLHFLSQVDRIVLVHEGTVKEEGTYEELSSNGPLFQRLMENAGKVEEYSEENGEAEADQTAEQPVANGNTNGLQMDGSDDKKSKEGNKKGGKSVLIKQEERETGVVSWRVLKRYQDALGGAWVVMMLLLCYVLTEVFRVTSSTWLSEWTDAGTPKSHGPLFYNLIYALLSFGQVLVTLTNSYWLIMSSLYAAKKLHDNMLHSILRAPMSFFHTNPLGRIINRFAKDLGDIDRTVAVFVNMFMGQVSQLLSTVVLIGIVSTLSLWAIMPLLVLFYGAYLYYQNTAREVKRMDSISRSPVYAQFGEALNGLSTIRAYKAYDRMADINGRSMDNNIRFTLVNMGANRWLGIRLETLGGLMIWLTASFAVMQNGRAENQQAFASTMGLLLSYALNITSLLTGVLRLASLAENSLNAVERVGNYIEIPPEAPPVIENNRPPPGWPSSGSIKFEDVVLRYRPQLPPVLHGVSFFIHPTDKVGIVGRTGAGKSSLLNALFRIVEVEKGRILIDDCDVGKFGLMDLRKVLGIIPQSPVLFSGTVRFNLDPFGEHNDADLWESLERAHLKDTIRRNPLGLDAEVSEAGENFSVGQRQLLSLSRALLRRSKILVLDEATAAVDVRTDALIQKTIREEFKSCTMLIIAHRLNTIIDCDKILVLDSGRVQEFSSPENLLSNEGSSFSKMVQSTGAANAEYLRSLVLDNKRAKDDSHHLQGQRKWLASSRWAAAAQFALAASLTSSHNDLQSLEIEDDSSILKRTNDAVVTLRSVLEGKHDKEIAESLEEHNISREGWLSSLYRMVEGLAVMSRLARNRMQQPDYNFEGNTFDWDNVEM

| Molecule | inhibition of absorption of PC2—As complex into the yeast vesicle (AtABCC1) | inhibition of absorption of PC2—As complex into the yeast vesicle (AtABCC2) | growth of the atabcc1 atabcc2 knock-out line compared with the wild type [1] |
| --- | --- | --- | --- |
| NH4Cl | not inhibited | not inhibited |  |
| C[As](=O)(O)O |  |  | dramatically inhibited |
